The text below walks through data of publication PMC7612757 (Science (New York, N.Y.), 2022).

Where two headings read alike, the source gives them in different places.

T1: CENP-I (human, UniProt Q92674 1-756)
T1 sequence: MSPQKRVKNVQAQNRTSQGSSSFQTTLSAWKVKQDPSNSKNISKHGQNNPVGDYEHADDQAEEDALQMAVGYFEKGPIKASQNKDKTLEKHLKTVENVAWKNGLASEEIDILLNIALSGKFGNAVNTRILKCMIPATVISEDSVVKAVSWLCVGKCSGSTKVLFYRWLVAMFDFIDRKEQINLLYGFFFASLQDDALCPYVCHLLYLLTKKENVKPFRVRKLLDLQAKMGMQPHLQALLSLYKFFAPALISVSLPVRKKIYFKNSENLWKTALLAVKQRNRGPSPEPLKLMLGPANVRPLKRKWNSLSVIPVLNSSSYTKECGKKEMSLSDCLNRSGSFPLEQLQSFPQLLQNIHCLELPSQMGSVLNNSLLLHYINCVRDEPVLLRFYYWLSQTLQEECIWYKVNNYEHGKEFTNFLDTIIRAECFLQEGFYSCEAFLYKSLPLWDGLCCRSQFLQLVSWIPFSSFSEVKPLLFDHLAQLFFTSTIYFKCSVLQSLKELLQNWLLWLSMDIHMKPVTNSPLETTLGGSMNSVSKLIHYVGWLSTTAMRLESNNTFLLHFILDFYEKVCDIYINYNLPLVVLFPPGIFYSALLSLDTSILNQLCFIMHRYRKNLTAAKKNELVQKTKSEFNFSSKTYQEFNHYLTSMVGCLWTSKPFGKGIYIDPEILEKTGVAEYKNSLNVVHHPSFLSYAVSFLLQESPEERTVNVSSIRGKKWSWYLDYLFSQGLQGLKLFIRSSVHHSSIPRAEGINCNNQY

T2: CENP-L (human, UniProt Q8N0S6 1-344)
T2 sequence: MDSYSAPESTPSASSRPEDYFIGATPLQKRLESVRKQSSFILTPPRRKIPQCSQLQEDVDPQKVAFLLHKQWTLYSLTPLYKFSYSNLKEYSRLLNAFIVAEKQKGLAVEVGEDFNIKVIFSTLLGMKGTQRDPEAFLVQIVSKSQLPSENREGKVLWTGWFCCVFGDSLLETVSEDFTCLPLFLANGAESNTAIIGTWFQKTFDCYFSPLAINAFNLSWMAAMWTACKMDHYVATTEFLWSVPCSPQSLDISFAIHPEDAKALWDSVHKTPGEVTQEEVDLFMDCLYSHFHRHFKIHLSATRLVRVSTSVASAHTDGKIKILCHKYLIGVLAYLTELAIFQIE

B1: CENP-K (natural protein)
chain: MNQEDLDPDSTTDVGDVTNTEEELIRECEEMWKDMEECQNKLSLIGTETLTDSNAQLSLLIMQVKCLTAELSQWQKKTPETIPLTEDVLITLGKEEFQKLRQDLEMVLSTKESKNEKLKEDLEREQRWLDEQQQIMESLNVLHSELKNKVETFSESRIFNELKTKMLNIKEYKEKLLSTLGEFLEDHFPLPDRSVKKKKKNIQESSVNLITLHEMLEILINRLFDVPHDPYVKISDSFWPPYVELLLRNGIALRHPEDPTRIRLEAFHQ
B2: CENP-M (natural protein)
chain: MSVLRPLDKLPGLNTATILLVGTEDALLQQLADSMLKEDCASELKVHLAKSLPLPSSVNRPRIDLIVFVVNLHSKYSLQNTEESLRHVDASFFLGKVCFLATGAGRESHCSIHRHTVVKLAHTYQSPLLYCDLEVEGFRATMAQRLVRVLQICAGHVPGVSALNLLSLLRSSEGPSLEDL
B3: CENP-O (natural protein)
chain: MEQANPLRPDGESKGGVLAHLERLETQVSRSRKQSEELQSVQAQEGALGTKIHKLRRLRDELRAVVRHRRASVKACIANVEPNQTVEINEQEALEEKLENVKAILQAYHFTGLSGKLTSRGVCVCISTAFEGNLLDSYFVDLVIQKPLRIHHHSVPVFIPLEEIAAKYLQTNIQHFLFSLCEYLNAYSGRKYQADRLQSDFAALLTGPLQRNPLCNLLSFTYKLDPGGQSFPFCARLLYKDLTATLPTDVTVTCQGVEVLSTSWEEQRASHETLFCTKPLHQVFASFTRKGEKLDMSLVS
B4: CENP-H (natural protein)
chain: MEEQPQMQDADEPADSGGEGRAGGPPQVAGAQAACSEDRMTLLLRLRAQTKQQLLEYKSMVDASEEKTPEQIMQEKQIEAKIEDLENEIEEVKVAFEIKKLALDRMRLSTALKKNLEKISRQSSVLMDNMKHLLELNKLIMKSQQESWDLEEKLLDIRKKRLQLKQASESKLLEIQTEKNKQKIDLDSMENSERIKIIRQNLQMEIKITTVIQHVFQNLILGSKVNWAEDPALKEIVLQLEKNVDMM
B5: CENP-W (natural protein)
chain: MALSTIVSQRKQIKRKAPRGFLKRVFKRKKPQLRLEKSGDLLVHLNCLLFVHRLAEESRTNACASKCRVINKEHVLAAAKVILKKSRG

Assay in all cases: cryo-EM structure
In the test “CENP-O” the target is B3.
Another test has as its target T1, CENP-I.
The test “CENP-K” deals with B1.
The next test has as its target T2, CENP-L.
The target of test [1] is T3, CENP-N (human, UniProt Q96H22).
The target of test [2] is T3, CENP-N. This is another data set of the same source.

Consider B1, for which the binding result with CENP-O is on record as “binds”. B2: the binding result with CENP-I, in the test with CENP-K, in the test with CENP-L and in the test with CENP-N [1] was “binds” throughout.

On to B3, for which the binding result with CENP-I is listed as “binds”. On to B4, for which the binding result in the test with CENP-K is “binds”.

Take B5: the binding result with CENP-N [2] is “binds”.
